From patent US9447029B2, “Fluorinated arylalkylaminocarboxamide derivatives” (NEWRON PHARMACEUTICALS S.P.A., priority 2011, dated 2016)
Structures can show the parent of a compound that is named as a salt.

By UniProt entry, the sequences of proteins in these tests, tags left out.
UniProt P10635, whole entry: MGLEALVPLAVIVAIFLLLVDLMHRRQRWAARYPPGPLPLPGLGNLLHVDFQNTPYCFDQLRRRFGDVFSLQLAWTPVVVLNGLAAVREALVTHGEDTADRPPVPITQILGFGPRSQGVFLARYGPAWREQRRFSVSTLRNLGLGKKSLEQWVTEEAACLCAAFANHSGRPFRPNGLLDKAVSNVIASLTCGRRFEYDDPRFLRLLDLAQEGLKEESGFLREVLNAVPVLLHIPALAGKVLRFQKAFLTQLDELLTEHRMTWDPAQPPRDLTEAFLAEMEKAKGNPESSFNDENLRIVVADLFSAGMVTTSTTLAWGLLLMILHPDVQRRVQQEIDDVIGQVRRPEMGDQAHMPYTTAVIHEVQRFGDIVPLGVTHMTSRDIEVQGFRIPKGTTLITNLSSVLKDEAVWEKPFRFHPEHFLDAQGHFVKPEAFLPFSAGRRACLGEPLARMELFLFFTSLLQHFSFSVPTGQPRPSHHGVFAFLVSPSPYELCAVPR

Target: CYP2D6 (Homo sapiens (Human), UniProt P10635)
Experiment: Inhibition of Cytochrome P4502D6 (CYP2D6) using Supersomes
Type: in vitro ADME
Settings: AMMC substrate, read-out: IC50 (Fluorinated derivative)
Procedure: The inhibition of Cytochrome P4502D6 (CYP2D6) is assessed by performing in vitro inhibition studies using Supersomes, microsomes derived from baculovirus infected insect cells; the baculoviruses are engineered to express one or more drug metabolizing enzyme cDNAs. Supersomes catalyze the same enzymatic reactions as human liver microsome enzymes, but they contain much higher enzyme activity than other microsome sources (Crespi C. L. and Penman B. W., Advances Pharmacology, 43, 171-188 (1997); Crespi C. L. and Miller V. P., Analytical Biochemistry, 248, 188-190 (1997)).
Kits with Supersomes are Supplied by GENTEST (MA, USA).
Test compound is dissolved in DMSO 500× the highest final concentration desired in the IC50 assay. 30 ml of deionized water is pre-warmed to 37° C. and all kit components are placed on ice. For each well of column 1, 149.4 μL of NADPH-Cofactor Mix, (187.5 μl of Cofactors, 150 μl of G6PDH, 100 μl of Control Protein and 14.56 ml of 37° C. water) are added.
In each well from Column 2 to 12, 100 μl of Cofactor/DMSO mix (40 μL DMSO in 9.96 ml of NADPH-Cofactor Mix) are added. To each well of column 1, 0.6 μl of test compound or positive control are added. 50 μl from each well of column 1 are serially diluted to column 8. The extra 50 μl from column 8 are discarded. The plate is covered and pre-incubated at 37° C. for 10 minutes.
Preparation of enzyme/substrate mix: 7.92 ml of pre-warmed deionized water, 75 μl of enzyme, 3 μl of 10 mM AMMC and 2 ml of pre-warmed buffer are mixed.
After the pre-incubation time (10′), 100 μl of enzyme/substrate mix to each well from column 1 to 10 are added. The plate is incubated at 37° C. for 30 minutes. After this time, 75 μl of Stop Reagent to each well are added. For blank controls, 100 μl of enzyme/substrate mix are added to columns 11 and 12.
Plates are read at the Victor plate reader (Perkin Elmer, MA—USA) at 390 nm excitation and 460 nm emission wavelengths.

SMILES	IC50 [µM]
CN(C)C(=O)CNCC(F)(F)c1cccc(OCc2ccccc2)c1 [Example 1-14, 2-[2,2-Difluoro-2-(3-benzyloxyphenyl)-ethylamino]-N,N-dimethyl-acetamide, hydrochloride]	> 40
CCCCOc1cccc(C(F)(F)CNCC(=O)N2CCCCC2)c1 [Example 1-29, 2-[2,2-Difluoro-2-(3-butoxyphenyl)-ethylamino]-1-(piperidin-1-yl)-ethanone, hydrochloride]	38.3
CCCCOc1cccc(C(F)(F)CNCC(=O)N(CC)CC)c1 [Example 1-32, 2-[2,2-Difluoro-2-(3-butoxyphenyl)-ethylamino]-N,N-diethyl-acetamide, hydrochloride]	34
